Assay results as given in BindingDB's records for doi:10.1007/pl00005315 (Eli Lilly, 1999).

By UniProt entry, the sequences of proteins in these tests, tags left out.
UniProt P28223, whole entry: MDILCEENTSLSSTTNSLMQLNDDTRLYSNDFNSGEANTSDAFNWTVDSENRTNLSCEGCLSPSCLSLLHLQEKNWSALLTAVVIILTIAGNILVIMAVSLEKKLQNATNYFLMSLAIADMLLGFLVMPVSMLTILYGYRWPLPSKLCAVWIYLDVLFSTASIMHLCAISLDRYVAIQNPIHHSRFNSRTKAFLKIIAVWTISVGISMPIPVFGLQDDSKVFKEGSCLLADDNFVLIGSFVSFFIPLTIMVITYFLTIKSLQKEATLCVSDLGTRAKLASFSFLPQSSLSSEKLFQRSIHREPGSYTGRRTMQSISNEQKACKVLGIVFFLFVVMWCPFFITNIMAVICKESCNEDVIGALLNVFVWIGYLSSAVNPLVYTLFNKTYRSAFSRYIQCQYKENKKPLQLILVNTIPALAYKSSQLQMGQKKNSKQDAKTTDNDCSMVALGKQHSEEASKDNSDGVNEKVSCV
UniProt P30994, whole entry: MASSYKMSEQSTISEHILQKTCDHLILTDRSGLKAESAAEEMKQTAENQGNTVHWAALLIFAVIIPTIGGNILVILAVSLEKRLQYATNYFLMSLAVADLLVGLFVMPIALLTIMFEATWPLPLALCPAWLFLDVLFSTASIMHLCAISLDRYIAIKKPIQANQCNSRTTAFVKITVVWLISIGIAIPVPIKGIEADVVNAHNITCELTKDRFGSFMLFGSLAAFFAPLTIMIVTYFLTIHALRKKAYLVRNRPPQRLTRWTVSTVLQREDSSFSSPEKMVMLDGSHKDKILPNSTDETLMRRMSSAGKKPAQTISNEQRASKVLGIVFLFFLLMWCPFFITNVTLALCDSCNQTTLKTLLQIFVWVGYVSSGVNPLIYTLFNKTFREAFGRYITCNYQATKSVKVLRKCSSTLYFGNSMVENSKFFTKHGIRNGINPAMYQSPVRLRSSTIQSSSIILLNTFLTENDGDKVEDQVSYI

Experiments:
[1] = molecular target: 5-hydroxytryptamine receptor 2A (Homo sapiens, UniProt P28223)
[2] = molecular target: 5-hydroxytryptamine receptor 2B (Rattus norvegicus, UniProt P30994)

## COc1ccc(OC)c(CC(C)N)c1 (configuration not stated) [2-(2,5-Dimethoxy-phenyl)-1-methyl-ethylamine]
[1]
  Ki: 211 nM
[2]
  Ki: 950 nM
